# Experimental data: patent publication US12331044B2, “Inhibitors of histone deacetylase useful for the treatment or prevention of HIV infection” (Merck Sharp & Dohme LLC, priority 2018, dated 2025)
# The chains behind the UniProt entries cited, without tags or fusion partners. Where a name states a change or a piece, a line headed by the entry shows the natural chain unless it says otherwise.
# UniProt Q92769, whole entry: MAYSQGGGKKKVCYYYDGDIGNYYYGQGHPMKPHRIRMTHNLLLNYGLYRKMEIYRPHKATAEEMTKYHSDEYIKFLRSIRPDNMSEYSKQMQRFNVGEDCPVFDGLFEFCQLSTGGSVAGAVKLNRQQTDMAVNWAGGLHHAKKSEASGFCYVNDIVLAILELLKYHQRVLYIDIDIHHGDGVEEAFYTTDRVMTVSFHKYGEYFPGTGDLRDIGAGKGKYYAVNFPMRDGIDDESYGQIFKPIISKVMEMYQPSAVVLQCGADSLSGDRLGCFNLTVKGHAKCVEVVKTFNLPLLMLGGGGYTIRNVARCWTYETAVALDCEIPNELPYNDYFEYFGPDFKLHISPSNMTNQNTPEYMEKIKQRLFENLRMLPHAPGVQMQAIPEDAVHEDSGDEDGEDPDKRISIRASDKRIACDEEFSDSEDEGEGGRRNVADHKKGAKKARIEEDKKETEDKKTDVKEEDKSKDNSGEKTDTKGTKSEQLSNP
# UniProt Q9BY41: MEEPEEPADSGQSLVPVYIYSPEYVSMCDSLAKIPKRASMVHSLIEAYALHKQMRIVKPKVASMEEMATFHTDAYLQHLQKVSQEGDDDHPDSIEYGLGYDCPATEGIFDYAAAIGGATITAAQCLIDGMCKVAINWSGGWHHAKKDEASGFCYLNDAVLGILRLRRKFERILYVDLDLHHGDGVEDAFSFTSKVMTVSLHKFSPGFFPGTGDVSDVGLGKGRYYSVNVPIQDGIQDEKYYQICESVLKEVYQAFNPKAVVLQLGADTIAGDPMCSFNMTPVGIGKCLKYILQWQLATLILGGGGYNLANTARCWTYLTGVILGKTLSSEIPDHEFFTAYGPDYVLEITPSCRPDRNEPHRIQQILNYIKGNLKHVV
# UniProt Q13547, whole entry: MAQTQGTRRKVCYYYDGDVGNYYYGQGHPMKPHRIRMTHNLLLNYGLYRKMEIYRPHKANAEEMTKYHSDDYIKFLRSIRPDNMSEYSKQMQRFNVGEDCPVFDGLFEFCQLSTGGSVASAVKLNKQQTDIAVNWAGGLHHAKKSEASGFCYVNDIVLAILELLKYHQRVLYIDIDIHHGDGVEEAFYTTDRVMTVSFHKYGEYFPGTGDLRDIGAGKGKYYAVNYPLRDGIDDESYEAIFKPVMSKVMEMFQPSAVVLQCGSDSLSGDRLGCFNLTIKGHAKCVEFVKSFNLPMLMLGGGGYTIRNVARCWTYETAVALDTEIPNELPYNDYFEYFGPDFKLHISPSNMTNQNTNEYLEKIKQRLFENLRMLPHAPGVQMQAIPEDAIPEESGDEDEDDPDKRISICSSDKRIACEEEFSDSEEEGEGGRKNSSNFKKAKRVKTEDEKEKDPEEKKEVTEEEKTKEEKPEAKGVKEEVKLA
# UniProt Q9UBN7: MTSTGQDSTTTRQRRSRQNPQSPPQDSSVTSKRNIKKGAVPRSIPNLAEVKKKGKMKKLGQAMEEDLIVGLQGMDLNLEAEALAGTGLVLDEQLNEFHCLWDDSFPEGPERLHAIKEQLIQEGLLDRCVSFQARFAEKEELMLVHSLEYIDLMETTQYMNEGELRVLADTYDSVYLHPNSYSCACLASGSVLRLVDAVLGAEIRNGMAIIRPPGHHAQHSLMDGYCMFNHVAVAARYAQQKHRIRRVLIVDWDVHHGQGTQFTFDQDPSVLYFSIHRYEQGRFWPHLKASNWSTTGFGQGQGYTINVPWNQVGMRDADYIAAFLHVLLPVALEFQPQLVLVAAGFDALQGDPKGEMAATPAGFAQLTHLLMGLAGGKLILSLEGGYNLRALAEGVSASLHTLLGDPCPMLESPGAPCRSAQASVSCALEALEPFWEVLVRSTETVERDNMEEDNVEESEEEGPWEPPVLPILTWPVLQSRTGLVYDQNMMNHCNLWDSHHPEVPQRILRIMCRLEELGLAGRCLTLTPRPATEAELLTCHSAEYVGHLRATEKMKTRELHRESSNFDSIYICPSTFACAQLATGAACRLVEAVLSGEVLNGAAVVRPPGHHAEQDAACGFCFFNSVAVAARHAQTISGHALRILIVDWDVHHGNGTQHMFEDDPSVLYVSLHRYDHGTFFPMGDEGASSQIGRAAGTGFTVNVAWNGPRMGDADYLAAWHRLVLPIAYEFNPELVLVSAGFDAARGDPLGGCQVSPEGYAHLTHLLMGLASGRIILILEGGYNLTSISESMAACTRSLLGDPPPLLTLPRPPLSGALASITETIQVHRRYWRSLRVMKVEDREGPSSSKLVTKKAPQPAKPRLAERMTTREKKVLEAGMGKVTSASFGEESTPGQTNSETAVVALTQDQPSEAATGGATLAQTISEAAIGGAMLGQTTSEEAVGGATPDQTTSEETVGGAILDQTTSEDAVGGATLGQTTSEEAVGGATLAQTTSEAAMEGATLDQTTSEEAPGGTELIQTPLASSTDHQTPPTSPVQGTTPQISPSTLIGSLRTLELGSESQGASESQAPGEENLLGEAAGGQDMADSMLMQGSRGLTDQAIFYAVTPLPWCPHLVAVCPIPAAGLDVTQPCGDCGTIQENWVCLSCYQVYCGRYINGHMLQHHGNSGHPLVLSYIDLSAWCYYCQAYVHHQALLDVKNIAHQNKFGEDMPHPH
# Legend:
# human HDAC2 = human HDAC2 (Homo sapiens (Human), UniProt Q92769); test: HDAC2 inhibition assay (modified FLUOR DE LYS, 384-well); type: biochemical
# human HDAC8 = human HDAC8 (Homo sapiens (Human), UniProt Q9BY41); test: HDAC8 inhibition assay (modified FLUOR DE LYS, 384-well); type: biochemical; conditions: […] enzyme, 200 μM substrate BML-KI178, 3 h pre-incubation
# human HDAC1 = human HDAC1 (Homo sapiens (Human), UniProt Q13547)
# HDAC6 = HDAC6 (Homo sapiens (Human), UniProt Q9UBN7)
# [1] = […] enzyme, 40 μM substrate BML-KI104, 3 h pre-incubation
Compound,IC50 (human HDAC2; [1]),IC50 (human HDAC8),IC50 (human HDAC2),IC50 (human HDAC1),IC50 (HDAC6)
"CN1CC(C(=O)N[C@@H](CCCCCC(=O)c2ncco2)c2nc(-c3ccc(F)cc3)c[nH]2)C1 [Example 1, (S)-N-(1-(4-(4-fluorophenyl)-1H-imidazol-2-yl)-7-(oxazol-2-yl)-7-oxoheptyl)-1-methylazetidine-3-carboxamide]",7.1 nM,100 nM,,,
"N[C@@H](CCCCCC(=O)c1cocn1)c1ncc(-c2ccccc2F)[nH]1 [Example 36, (S)-7-amino-7-(5-(2-fluorophenyl)-1H-imidazol-2-yl)-1-(oxazol-4-yl)heptan-1-one]",,,740 nM,170 nM,
Cc1cc(C(=O)CCCCC[C@H](NC(=O)C2CN(C)C2)c2nc(-c3ccccc3F)c[nH]2)no1 [Example 59],0.76 nM,16 nM,,0.16 nM,
"CN1CC(C(=O)N[C@@H](CCCCCC(=O)c2ccon2)c2nnc(-c3ccccc3F)o2)C1 [Example 106, (S)-N-(1-(5-(2-fluorophenyl)-1,3,4-oxadiazol-2-yl)-7-(isoxazol-3-yl)-7-oxoheptyl)-1-methylazetidine-3-carboxamide]",101 nM,> 900 nM,,51 nM,> 900 nM
"CN1CC(C(=O)NC(CCCCCC(=O)c2ccon2)c2ncc(-c3ccccc3F)o2)C1 (stereo not drawn) [Example 107, N-(1-(5-(2-fluorophenyl)oxazol-2-yl)-7-(isoxazol-3-yl)-7-oxoheptyl)-1-methylazetidine-3-carboxamide]",0.82 nM,32 nM,,0.2 nM,> 900 nM
"NC(CCCCCC(=O)c1ccon1)c1cnn(-c2ccc(F)cc2)c1 (stereo not drawn) [Example 121, 7-amino-7-[1-(4-fluorophenyl)-1H-pyrazol-4-yl]-1-isoxazol-3-ylheptan-1-one]",61 nM,470 nM,,,
"NC(CCCCCC(=O)c1ccon1)c1cnn(-c2ccc(F)cc2)c1 (stereo not drawn) [Example 122, 7-amino-7-[1-(4-fluorophenyl)-1H-pyrazol-4-yl]-1-isoxazol-3-ylheptan-1-one]",1600 nM,,,,
"NC(CCCCCC(=O)c1ccon1)c1cnn(-c2ccc(F)cc2)n1 (stereo not drawn) [Example 123, 7-amino-7-[2-(4-fluorophenyl)-2H-1,2,3-triazol-4-yl]-1-isoxazol-3-ylheptan-1-one]",81 nM,440 nM,,25 nM,
"NC(CCCCCC(=O)c1ccon1)c1cnn(-c2ccc(F)cc2)n1 (stereo not drawn) [Example 124, 7-amino-7-[2-(4-fluorophenyl)-2H-1,2,3-triazol-4-yl]-1-isoxazol-3-ylheptan-1-one]",1200 nM,,,450 nM,
"N[C@@H](CCCCCC(=O)c1ccon1)c1cc(-c2ccccc2F)on1 [Example 125, (7S)-7-amino-7-[5-(2-fluorophenyl)isoxazol-3-yl]-1-isoxazol-3-ylheptan-1-one]",,,,,> 900 nM

# Read-outs that look alike come from different tables or passages of the source.
